The results in this text go back to PubChem BioAssay AID434987 (Southern Research Specialized Biocontainment Screening …, 2010).

Active and inactive are the calls of the source. No rule for the calls is given here.

The subject of this experiment is M. tuberculosis H37Rv growth inhibition with meropenem. The experiment can be described thus: dose response, H37Rv, with and without meropenem (AID 434987).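 Also: growth over 7 days at 37 °C before Alamar Blue read on day 9.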

Consider `CCCCCCCCCCCCCCCC[N+](C)(C)CCN(Cc1ccc(OC)cc1)c1ncccn1`, for which the IC50 was inactive: 2.83 µM. For the same compound, where the note is “M. tuberculosis H37Rv growth inhibition, measured here: IC50 without meropenem”, the 50% inhibitory concentration (IC50) came out at 2.86 µM. For the setting “M. tuberculosis H37Rv growth inhibition, measured here: IC90 without meropenem”, this compound showed an IC90 of 3.25 µM. This compound also had an IC90 (measured here: IC90 with meropenem) of 3.09 µM.

As usually defined, the IC50 is the concentration that inhibits the measured activity by half. The term IC90 denotes the concentration at which the effect reaches the 90% level. Read a high IC90 as a need for much substance.
